Target: T1, Neuropeptides B/W receptor type 1 (Homo sapiens, UniProt P48145)
T1 sequence (P48145 whole entry): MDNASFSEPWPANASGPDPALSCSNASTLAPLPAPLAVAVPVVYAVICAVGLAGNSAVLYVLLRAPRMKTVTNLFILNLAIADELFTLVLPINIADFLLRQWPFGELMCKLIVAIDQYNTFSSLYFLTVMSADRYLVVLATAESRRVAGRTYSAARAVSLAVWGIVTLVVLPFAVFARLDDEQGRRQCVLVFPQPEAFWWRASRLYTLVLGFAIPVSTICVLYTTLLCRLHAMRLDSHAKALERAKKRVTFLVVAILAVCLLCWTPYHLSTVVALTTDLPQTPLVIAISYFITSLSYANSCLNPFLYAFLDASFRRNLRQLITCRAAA
Experiment: Agonist activity at human NPBWR1 expressed in CHO-RD-HGA16 cells measured by calcium mobilization assay
Type: functional, cell-based

Q: For `CSCC[C@H](NC(=O)[C@H](CC(C)C)NC(=O)[C@H](CC(C)C)NC(=O)CNC(=O)[C@H](C)NC(=O)[C@H](C)NC(=O)[C@H](CCCNC(=N)N)NC(=O)CNC(=O)[C@@H](NC(=O)[C@@H](NC(=O)[C@H](Cc1cnc[nH]1)NC(=O)[C@H](Cc1ccc(O)cc1)NC(=O)[C@H](CCCNC(=N)N)NC(=O)[C@@H]1CCCN1C(=O)[C@H](CO)NC(=O)[C@H](C)NC(=O)[C@@H](NC(=O)[C@H](Cc1cnc[nH]1)NC(=O)[C@H](CCCCN)NC(=O)[C@H](Cc1ccc(O)cc1)NC(=O)[C@@H](N)Cc1c[nH]c2ccccc12)C(C)C)[C@@H](C)O)C(C)C)C(=O)NCC(=O)N[C@@H](CC(C)C)C(=O)N[C@@H](CCCNC(=N)N)C(=O)N[C@@H](CCCNC(=N)N)C(=O)N[C@@H](CO)C(=O)N1CCC[C@H]1C(=O)N[C@@H](Cc1ccc(O)cc1)C(=O)N[C@@H](CC(C)C)C(=O)N[C@@H](Cc1c[nH]c2ccccc12)C(=O)O`, which EC50 is on record?
A: 10.9 nM

— ChEMBL document CHEMBL5154716, “Neuropeptide B/W receptor 1 peptidomimetic agonists: Structure-activity relationships and plasma stability” (Eur J Med Chem, 2022)
